Assays:
[1] = target: T1, cloned human μ opioid receptor (Homo sapiens, UniProt P35372); assay: Inhibition of DAMGO-stimulated [35S]GTPγS binding; assay type: biochemical; conditions: antagonism of agonist DAMGO
T1 construct: expressed in transfected cells
Source text: Measures of opioid receptor antagonism and specificity were obtained by monitoring the ability of selected test compounds to inhibit stimulation of [^35S]GTPγS binding produced by the selective agonists (D-Ala^2,MePhe^4,Gly-ol^5)enkephalin (DAMGO, mu receptor) cyclo[D-Pen^2,D-Pen^5]enkephalin (DPDPE, delta) and 5,7,8-(-)-N-methyl-N-[7-(1-pyrrolidinyl)-1-oxaspiro[4,5]dec-8-yl]benzeneacetamide (U69,593, kappa) in cloned human receptors (Table 1).

The chains behind the UniProt entries cited, without tags or fusion partners. Where a name states a change or a piece, a line headed by the entry shows the natural chain unless it says otherwise.
UniProt P35372, whole entry: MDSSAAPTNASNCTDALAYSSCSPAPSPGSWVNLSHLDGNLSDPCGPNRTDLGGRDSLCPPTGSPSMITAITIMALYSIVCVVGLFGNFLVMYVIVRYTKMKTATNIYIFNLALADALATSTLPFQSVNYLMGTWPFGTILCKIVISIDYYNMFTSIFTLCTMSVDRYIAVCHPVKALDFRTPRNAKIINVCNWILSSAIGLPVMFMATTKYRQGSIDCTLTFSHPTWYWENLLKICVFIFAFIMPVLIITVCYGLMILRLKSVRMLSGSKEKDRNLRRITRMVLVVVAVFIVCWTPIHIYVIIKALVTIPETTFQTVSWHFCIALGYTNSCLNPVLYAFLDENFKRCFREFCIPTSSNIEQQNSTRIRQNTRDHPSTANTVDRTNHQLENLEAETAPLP
UniProt P41145: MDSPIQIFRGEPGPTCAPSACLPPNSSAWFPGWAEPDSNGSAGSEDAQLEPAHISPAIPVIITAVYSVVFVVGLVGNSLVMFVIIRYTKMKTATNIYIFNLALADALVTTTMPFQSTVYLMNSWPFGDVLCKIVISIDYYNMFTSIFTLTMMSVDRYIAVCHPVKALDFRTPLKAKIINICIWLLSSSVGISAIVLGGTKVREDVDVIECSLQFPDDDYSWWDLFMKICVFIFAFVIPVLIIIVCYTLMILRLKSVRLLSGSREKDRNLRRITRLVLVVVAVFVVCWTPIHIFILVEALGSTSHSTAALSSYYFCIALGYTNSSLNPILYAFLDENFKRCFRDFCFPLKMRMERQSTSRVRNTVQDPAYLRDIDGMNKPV

[2] = target: T2, cloned human κ opioid receptor (Homo sapiens, UniProt P41145); assay: Inhibition of U69,593-stimulated [35S]GTPγS binding; assay type: biochemical
T2 construct: expressed in transfected cells

Row | Compound | μ, DAMGO Ke [1] | κ, U69,593 ke ([2]; antagonism of agonist U69,593, [35S]GTPγS binding) | δ/κ ([2]; ratio of Ke values, δ over κ)
1 | CC1CN(CCCc2ccccc2)CC(C)N1c1cccc(O)c1 (stereo not drawn) [Compound 5d, (Z)-3-(2,6-Dimethyl-4-(3-phenylpropyl)piperazin-1-yl)phenol] | 3 nM | – | –
2 | Oc1ccc2c3c1O[C@H]1c4[nH]c5c(c4C[C@@]4(O)[C@@H](C2)N(CC2CC2)CC[C@]314)C[C@@]1(O)[C@H]2Cc3ccc(O)c4c3[C@@]1(CCN2CC1CC1)[C@H]5O4 [norBNI, reference compound] | – | 0.05 ± 0.02 nM | 580
